Assay results published in PubChem BioAssay (Tox21).
Values joined by “and” are separate entries in the source; they are usually repeats but may differ in a detail not shown here. Identical values can stand only once. The entries are a selection whose mix differs from that of the whole data set. Results filed as inconclusive are left out. Active and inactive are the calls of the source. Unless noted, the call rests on the fitted dose curve; in most records, active means well fitted curve in the direction sought with a large enough effect in the repeat runs; inconclusive means weak or mixed curves; inactive means no such curve, though single readings can be large; an effect the other way counts as inactive or inconclusive.

Sequences of proteins named here, by UniProt entry; tags and fusion partners are left off. A change or cut given only in a name is not applied to a line headed by its entry.
UniProt P11511: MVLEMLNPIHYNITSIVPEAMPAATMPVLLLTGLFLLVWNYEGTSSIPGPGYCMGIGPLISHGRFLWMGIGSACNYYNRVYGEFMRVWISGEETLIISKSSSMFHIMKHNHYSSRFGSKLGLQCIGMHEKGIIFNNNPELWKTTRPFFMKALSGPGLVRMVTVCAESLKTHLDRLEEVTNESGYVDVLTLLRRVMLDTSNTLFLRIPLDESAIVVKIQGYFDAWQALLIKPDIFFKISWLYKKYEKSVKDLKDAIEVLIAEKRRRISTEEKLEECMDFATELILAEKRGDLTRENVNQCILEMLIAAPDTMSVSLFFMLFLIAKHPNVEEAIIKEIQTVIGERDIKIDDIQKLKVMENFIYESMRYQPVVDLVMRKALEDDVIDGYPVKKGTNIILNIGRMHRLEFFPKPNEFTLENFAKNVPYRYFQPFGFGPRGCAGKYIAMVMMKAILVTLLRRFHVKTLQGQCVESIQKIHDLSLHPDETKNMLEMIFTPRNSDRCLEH
UniProt P35869: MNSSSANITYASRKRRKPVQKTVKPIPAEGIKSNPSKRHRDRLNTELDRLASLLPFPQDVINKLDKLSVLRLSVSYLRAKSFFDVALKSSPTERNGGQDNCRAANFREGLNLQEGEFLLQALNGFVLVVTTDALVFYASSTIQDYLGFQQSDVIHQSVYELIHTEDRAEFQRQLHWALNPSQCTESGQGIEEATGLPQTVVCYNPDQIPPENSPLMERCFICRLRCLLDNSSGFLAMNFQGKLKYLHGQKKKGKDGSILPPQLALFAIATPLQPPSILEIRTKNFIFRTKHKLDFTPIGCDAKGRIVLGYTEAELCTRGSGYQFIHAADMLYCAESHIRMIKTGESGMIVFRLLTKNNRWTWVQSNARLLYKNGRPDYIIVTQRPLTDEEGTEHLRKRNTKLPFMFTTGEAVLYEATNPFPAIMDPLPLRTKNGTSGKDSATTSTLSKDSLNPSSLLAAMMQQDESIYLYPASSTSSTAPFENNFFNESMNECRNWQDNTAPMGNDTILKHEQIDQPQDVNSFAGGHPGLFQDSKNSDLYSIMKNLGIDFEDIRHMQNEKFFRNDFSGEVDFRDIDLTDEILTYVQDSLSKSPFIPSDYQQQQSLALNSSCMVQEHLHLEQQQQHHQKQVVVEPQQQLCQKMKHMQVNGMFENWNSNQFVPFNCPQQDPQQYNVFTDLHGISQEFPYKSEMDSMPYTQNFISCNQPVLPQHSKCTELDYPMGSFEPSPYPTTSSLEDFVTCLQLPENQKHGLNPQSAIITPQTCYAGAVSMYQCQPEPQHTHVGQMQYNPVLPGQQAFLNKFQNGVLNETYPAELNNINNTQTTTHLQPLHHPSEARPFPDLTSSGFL
UniProt P37231: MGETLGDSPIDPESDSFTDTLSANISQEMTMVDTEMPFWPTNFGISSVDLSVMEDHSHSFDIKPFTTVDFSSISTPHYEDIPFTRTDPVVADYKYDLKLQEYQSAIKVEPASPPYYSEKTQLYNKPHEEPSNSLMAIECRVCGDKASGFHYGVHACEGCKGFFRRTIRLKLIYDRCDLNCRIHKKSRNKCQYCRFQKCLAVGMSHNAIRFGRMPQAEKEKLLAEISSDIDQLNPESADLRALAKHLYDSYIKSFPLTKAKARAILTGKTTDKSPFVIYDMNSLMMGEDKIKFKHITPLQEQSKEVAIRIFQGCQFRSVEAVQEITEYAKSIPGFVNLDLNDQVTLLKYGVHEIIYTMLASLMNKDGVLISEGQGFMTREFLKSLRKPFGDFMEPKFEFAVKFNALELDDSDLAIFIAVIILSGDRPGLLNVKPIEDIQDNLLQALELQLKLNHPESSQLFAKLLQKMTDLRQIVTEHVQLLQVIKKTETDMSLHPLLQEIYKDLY
UniProt Q03181: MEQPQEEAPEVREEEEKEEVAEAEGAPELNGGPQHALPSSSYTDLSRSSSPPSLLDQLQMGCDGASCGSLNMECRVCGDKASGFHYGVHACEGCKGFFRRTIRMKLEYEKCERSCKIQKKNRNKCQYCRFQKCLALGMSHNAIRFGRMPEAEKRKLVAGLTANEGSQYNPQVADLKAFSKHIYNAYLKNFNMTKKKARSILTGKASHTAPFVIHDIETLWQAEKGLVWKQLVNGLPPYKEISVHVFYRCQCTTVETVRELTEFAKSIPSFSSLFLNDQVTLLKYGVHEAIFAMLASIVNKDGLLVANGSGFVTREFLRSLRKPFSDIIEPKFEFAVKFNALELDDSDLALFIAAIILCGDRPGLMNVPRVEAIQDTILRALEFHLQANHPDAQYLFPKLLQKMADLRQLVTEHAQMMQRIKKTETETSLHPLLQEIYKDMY
UniProt P11473: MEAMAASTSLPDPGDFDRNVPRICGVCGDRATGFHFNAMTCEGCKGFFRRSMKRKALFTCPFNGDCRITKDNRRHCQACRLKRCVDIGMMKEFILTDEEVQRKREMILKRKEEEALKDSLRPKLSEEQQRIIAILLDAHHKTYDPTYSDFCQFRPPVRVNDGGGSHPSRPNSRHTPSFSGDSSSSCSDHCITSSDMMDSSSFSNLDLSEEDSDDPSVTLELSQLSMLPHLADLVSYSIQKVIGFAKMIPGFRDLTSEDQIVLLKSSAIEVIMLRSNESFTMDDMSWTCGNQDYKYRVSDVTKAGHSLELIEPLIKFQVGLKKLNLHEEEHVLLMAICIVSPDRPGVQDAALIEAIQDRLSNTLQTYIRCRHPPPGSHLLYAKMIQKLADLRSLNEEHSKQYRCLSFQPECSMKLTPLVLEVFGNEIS
UniProt Q96RI1: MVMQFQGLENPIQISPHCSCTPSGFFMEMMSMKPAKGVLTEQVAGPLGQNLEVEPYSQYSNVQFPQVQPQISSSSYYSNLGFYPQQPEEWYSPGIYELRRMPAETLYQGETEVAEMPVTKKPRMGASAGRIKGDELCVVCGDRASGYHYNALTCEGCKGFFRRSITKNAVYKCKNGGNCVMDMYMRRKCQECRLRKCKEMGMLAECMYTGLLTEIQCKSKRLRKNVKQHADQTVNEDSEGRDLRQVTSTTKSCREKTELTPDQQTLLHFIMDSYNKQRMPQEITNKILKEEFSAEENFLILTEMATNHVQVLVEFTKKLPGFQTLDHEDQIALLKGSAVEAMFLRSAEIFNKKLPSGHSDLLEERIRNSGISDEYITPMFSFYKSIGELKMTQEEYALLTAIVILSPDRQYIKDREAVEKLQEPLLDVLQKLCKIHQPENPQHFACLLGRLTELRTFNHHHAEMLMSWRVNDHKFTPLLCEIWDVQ

How the values were obtained:
[1] = qHTS assay to identify small molecule antagonists of the estrogen receptor alpha (ER-alpha) signaling pathway using the BG1 cell line - cell viability counter screen (AID 743081);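 further: compound given together with 17beta-estradiol as the ER stimulus; nearly all actives have a fitted effect of over 45% in size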
Aromatase (Homo sapiens) = Aromatase (Homo sapiens) (UniProt P11511); assay: qHTS assay to identify aromatase inhibitors (AID 743083); further: nearly all actives have a fitted effect of over 55% in size
[2] = qHTS assay to identify aromatase inhibitors - cell viability counter screen (AID 743084);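 further: cells stimulated with testosterone during compound exposure; nearly all actives have a fitted effect of over 55% in size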
[3] = biological target: Aryl hydrocarbon receptor (Homo sapiens) (UniProt P35869); assay: qHTS assay to identify small molecule that activate the aryl hydrocarbon receptor (AhR) signaling pathway (AID 743085);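 further: HG2L7.5c1 human HepG2 liver cells with stably integrated DRE-driven firefly reporter; nearly all actives have a fitted effect of over 15% in size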
[4] = biological target: Peroxisome proliferator-activated receptor gamma (Homo sapiens) (UniProt P37231); assay: qHTS assay to identify small molecule agonists of the peroxisome proliferator-activated receptor gamma (PPARg) signaling pathway (AID 743094; active means well fitted activation curve with a large enough effect in the signal ratio in the repeat runs, not every such curve was filed as active; the % refers to the signal ratio); conditions: HEK293H PPARg-UAS-bla, beta-lactamase FRET ratio, 17 h; at 57 µM (top of the series) unless noted
Outline: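 GeneBLAzer PPARg UAS-bla HEK293H cells carrying a stably integrated beta-lactamase reporter were pre-incubated 5 h at 37C, then exposed to compounds in DMSO for 17 h at 37C; LiveBLAzer B/G FRET substrate was added for 1 h at room temperature and fluorescence read.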

[5] = biological target: Peroxisome proliferator-activated receptor gamma (Homo sapiens) (UniProt P37231); assay: qHTS assay to identify small molecule antagonists of the peroxisome proliferator-activated receptor gamma (PPARg) signaling pathway (AID 743191; calls by dose curve; further: nearly all actives have a fitted effect of over 30% in size); conditions: HEK293H PPARg-UAS-bla, beta-lactamase ratio, antagonist, 17 h; at 62.6 µM (top of the series) unless noted
[6] = qHTS assay to identify small molecule antagonists of the peroxisome proliferator-activated receptor gamma (PPARg) signaling pathway - cell viability counter screen (AID 743194); further: nearly all actives have a fitted effect of over 55% in size
Outline: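 Cytotoxicity counter screen in PPARg-bla HEK293H cells, same wells as reporter assay. Compounds plus 50 nM rosiglitazone (final) for 17 h at 37 C, then viability read by CellTiter-Glo luminescence.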

[7] = qHTS assay for small molecule agonists of the antioxidant response element (ARE) signaling pathway (AID 743202; active means well fitted activation curve with a large enough effect in the signal ratio in the repeat runs, not every such curve was filed as active; the % refers to the signal ratio)
Outline: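 ARE-bla HepG2 cells (beta-lactamase reporter under the antioxidant response element), plated 5 hours, then exposed to compounds 16 hours at 37 C. LiveBLAzer B/G FRET substrate added for 2 hours at room temperature; fluorescence intensity read.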

[8] = qHTS assay for small molecule agonists of the antioxidant response element (ARE) signaling pathway - cell viability counter screen (AID 743203; calls by dose curve; further: nearly all actives have a fitted effect of over 55% in size)
Outline: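 CellSensor ARE-bla HepG2 cells, 2,000 per well, rested 5 hrs at 37C/5% CO2, then exposed to compound in DMSO for 16 hrs; viability read as CellTiter-Glo luminescence after 30 min at room temperature, in the reporter wells.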

[9] = qHTS assay for small molecule activators of the heat shock response signaling pathway - cell viability counter screen (AID 743209); further: nearly all actives have a fitted effect of over 50% in size
Outline: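 CellSensor HSE-bla HeLa cells, plated overnight at 37 C/5% CO2, were exposed to compounds in DMSO for 5 h at 37 C. Viability was then read in the same wells by CellTiter-Glo luminescence after 30 min at room temperature.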

[10] = qHTS assay for small molecule activators of the heat shock response signaling pathway (AID 743210; active means well fitted activation curve with a large enough effect in the signal ratio in the repeat runs, with a control signal flat, not every such curve was filed as active; the % refers to the signal ratio); conditions: HeLa HSE-bla reporter, beta-lactamase ratio, 5 h; at 62.6 µM (top of the series) unless noted
Outline: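 HSE-bla HeLa cells (beta-lactamase reporter under heat shock response elements), plated overnight, then exposed to compounds 5 h at 37 C; LiveBLAzer B/G FRET substrate added, 2.5 h at room temperature, fluorescence intensity read.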

[11] = qHTS assay to identify small molecule agonists of the peroxisome proliferator-activated receptor delta (PPARd) signaling pathway - cell viability counter screen (AID 743211); further: nearly all actives have a fitted effect of over 55% in size
Outline: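 PPARd-bla HEK293H cells (UAS-beta-lactamase reporter) were treated with compounds for 17 h at 37 C. Viability was then read in the same wells by CellTiter-Glo luminescence after 30 min at room temperature.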

[12] = biological target: Peroxisome proliferator-activated receptor delta (Homo sapiens) (UniProt Q03181); assay: qHTS assay to identify small molecule agonists of the peroxisome proliferator-activated receptor delta (PPARd) signaling pathway (AID 743212; calls by dose curve); conditions: HEK293H PPARd-UAS-bla, beta-lactamase FRET ratio, 17 h; at 62.6 µM (top of the series)
Outline: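 GeneBLAzer UAS-bla HEK293H cells carrying a PPARδ construct were exposed to compounds at 37 °C. Beta-lactamase activity was read by FRET fluorescence after 2 h at room temperature with LiveBLAzer B/G substrate.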

[13] = biological target: Peroxisome proliferator-activated receptor delta (Homo sapiens) (UniProt Q03181); assay: qHTS assay to identify small molecule antagonists of the peroxisome proliferator-activated receptor delta (PPARd) signaling pathway (AID 743215; active means well fitted inhibition curve with a large enough effect in the signal ratio in the repeat runs, not every such curve was filed as active; the % refers to the signal ratio;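 further: cells stimulated with agonist L165041 at 300 nM final during compound exposure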); conditions: HEK293H PPARd-UAS-bla, beta-lactamase FRET ratio, antagonist, 17 h; at 62 µM (top of the series)
Outline: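 PPARd UAS-bla HEK293H cells were pre-incubated 5 h at 37 C, then given test compounds in DMSO plus agonist L165041 (300 nM final). After 17 h at 37 C, beta-lactamase FRET substrate was added; fluorescence read after 2 h at room temperature.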

[14] = qHTS assay to identify small molecule agonists of the farnesoid-X-receptor (FXR) signaling pathway - cell viability counter screen (AID 743218); further: nearly all actives have a fitted effect of over 45% in size
Outline: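 FXR-UAS-bla HEK 293T cells, plated 5 h at 37 C, were exposed to compounds for 16 h at 37 C. CellTiter-Glo was then added to the same wells as the bla readout; luminescence read after 30 min at room temperature.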

[15] = qHTS assay to identify small molecule antagonists of the farnesoid-X-receptor (FXR) signaling pathway - cell viability counter screen (AID 743221; active means well fitted cell-killing curve with a large enough effect in the repeat runs, not every such curve was filed as active; further: nearly all actives have a fitted effect of over 50% in size)
[16] = biological target: Vitamin D3 receptor (Homo sapiens) (UniProt P11473); assay: qHTS assay to identify small molecule agonists of the vitamin D receptor (VDR) signaling pathway (AID 743222; calls by dose curve); conditions: HEK293T VDR-UAS-bla, beta-lactamase FRET ratio, 16 h; at 63.5 µM (top of the series) unless noted
Outline: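 VDR-bla cells were plated 4 h at 37C/5% CO2, then exposed to compounds in DMSO for 16 h. After LiveBLAzer B/G FRET substrate addition and 2 h at room temperature, beta-lactamase reporter fluorescence was read.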

[17] = qHTS assay to identify small molecule that activate the aryl hydrocarbon receptor (AhR) signaling pathway - cell viability counter screen (AID 743086);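 further: HepG2 liver cells carrying the AhR DRE luciferase reporter; nearly all actives have a fitted effect of over 45% in size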
Outline: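 HepG2-AhR-luc (HG2L7.5c1) cells, 4000/well, treated 24 h at 37 C with compound; viability measured as CellTiter-Fluor fluorescence after 30 min in the same wells as the luciferase read.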

[18] = biological target: Bile acid receptor (Homo sapiens) (UniProt Q96RI1); assay: qHTS assay to identify small molecule antagonists of the farnesoid-X-receptor (FXR) signaling pathway (AID 743217; active means well fitted inhibition curve with a large enough effect in the signal ratio in the repeat runs, not every such curve was filed as active; the % refers to the signal ratio); conditions: HEK293T FXR-UAS-bla, beta-lactamase ratio, CDCA-stimulated, 16 h; at 62.6 µM (top of the series) unless noted
Outline: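 FXR-UAS-bla HEK 293T cells pre-incubated 5 h at 37 °C, then exposed to compounds with chenodeoxycholic acid (50 uM final) for 16 h at 37 °C. Beta-lactamase reporter read by LiveBLAzer B/G FRET substrate fluorescence after 2 h at room temperature.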

[19] = biological target: Bile acid receptor (Homo sapiens) (UniProt Q96RI1); assay: qHTS assay to identify small molecule agonists of the farnesoid-X-receptor (FXR) signaling pathway (AID 743220; active means well fitted activation curve with a large enough effect in the signal ratio in the repeat runs, not every such curve was filed as active; the % refers to the signal ratio); conditions: HEK293T FXR-UAS-bla, beta-lactamase FRET ratio, 16 h
On the % scale 0 is the no-effect control and ±100 the full control effect.

O=[P+](Oc1ccccc1)Oc1ccccc1
inactive: Potency [1] | Potency (Aromatase (Homo sapiens)) | Potency [2] | Potency [3] | activation [4] -3.42% | ratio activity, negative = inhibition [5] 12% | Potency [6] | Potency [7] | Potency [8] | Potency [9] | activation [10] -0.0761% | Potency [11] | activation [12] -1.82% | ratio activity, negative = inhibition [13] 1.3% | Potency [14] | Potency [15] | activation [16] 0.224%

NC(=O)Nc1ccc([As](=O)(O)O)cc1
inactive: Potency (Aromatase (Homo sapiens)) | Potency [2] | Potency [3] | Potency [17] | Potency [6] | Potency [7] | Potency [8] | Potency [9] | activation [10] -0.446% and -0.86% | Potency [11] | activity change, negative = inhibition [18] 2.37% and 0.283% | Potency [14] | activation ([19]; at 62.6 µM (top of the series)) -1.35% and -2.28% | Potency [15] | activation [16] 5.69% and 2.18%

CCNC(C)Cc1ccc2c(c1)OCO2 (configuration not stated)
inactive: Potency [2] | Potency [3] | Potency [17] | activation [4] -12.1% [at 78.9 µM] | ratio activity, negative = inhibition [5] 3.39% [at 81.1 µM] | Potency [6] | Potency [7] | Potency [8] | Potency [9] | Potency [11] | activity change, negative = inhibition [18] -17.5% [at 81.1 µM] | Potency [14] | activation ([19]; at 81.1 µM (top of the series)) -0.0457% | Potency [15] | activation [16] -12.4% [at 81.1 µM]

CN(C(=O)Cc1cccc2occc12)[C@H]1CC[C@@]2(CCCO2)C[C@@H]1N1CCCC1
inactive: Potency (Aromatase (Homo sapiens)) | Potency [2] | Potency [3] | Potency [17] | activation [4] -11% | ratio activity, negative = inhibition [5] -23.1% | Potency [6] | Potency [7] | Potency [8] | Potency [9] | activation [10] 0.579% | Potency [11] | activity change, negative = inhibition [18] -1.56% | Potency [14] | activation ([19]; at 62.6 µM (top of the series)) -0.0904% | Potency [15] | activation [16] 5.25%

O=[N+]([O-])c1ccc(S(=O)(=O)O)c([N+](=O)[O-])c1
inactive: Potency [1] | Potency (Aromatase (Homo sapiens)) | Potency [2] | Potency [3] | Potency [17] | Potency [6] | Potency [8] | Potency [9] | Potency [11] | Potency [14] | Potency [15]

CN(C(=O)Cc1ccccc1)[C@H]1CC[C@@]2(CCCO2)C[C@@H]1N1CCCC1
inactive: Potency (Aromatase (Homo sapiens)) | Potency [3] | Potency [17] | activation [4] 0.001% | ratio activity, negative = inhibition [5] 7.88% | Potency [6] | Potency [7] | Potency [8] | Potency [9] | activation [10] 0.0582% | Potency [11] | activation [12] 1.11% | ratio activity, negative = inhibition [13] 4.35% | activity change, negative = inhibition [18] 4.78% | Potency [14] | activation ([19]; at 62.6 µM (top of the series)) 0.976% | Potency [15]
